The numbers were not newly measured in article PMC6004248 (Clinical cancer research : an official journal of the …, 2018), which cites them from elsewhere.

Data set [1] deals with advanced, ALK-positive NSCLC. Conditions: previously treated patients; cited from earlier work.
In data set [2] the test system is advanced, ALK-positive NSCLC. Conditions: untreated patients; cited from earlier work.
For a further data set, the system named is ALK-positive NSCLC. Conditions: cited from earlier work.

Where two headings read alike, the source gives them in different places.

As for `C[C@@H](Oc1cc(-c2cnn(C3CCNCC3)c2)cnc1N)c1c(Cl)ccc(F)c1Cl` [crizotinib], the “median PFS” value in data set [1] is given as 7.7 months; in data set [2] it was 10.9 months. Further, the response rate in data set [1] is reported as 65%; in data set [2], 74%.
Take `CCc1cc2c(cc1N1CCC(N3CCOCC3)CC1)C(C)(C)c1[nH]c3cc(C#N)ccc3c1C2=O` [alectinib]: in the data set on ALK-positive NSCLC, the “AEs leading to discontinuation” value is 11%, the “AEs leading to dose interruption” value is on record as 19%, the “AEs leading to dose reduction” value is listed as 16% and the “patients who had a SAE” value is reported as “Twenty-eight”. In the data set on ALK-positive NSCLC (first line), the RR is given as 82%, the intracranial response is on record as 81% and the “median PFS” value is recorded as 25.7 months.
